Assay results taken from ChEMBL document CHEMBL2384946 (Bioorg Med Chem, 2013).

Sequences of proteins named here, by UniProt entry; tags and fusion partners are left off.
UniProt P14416, whole entry: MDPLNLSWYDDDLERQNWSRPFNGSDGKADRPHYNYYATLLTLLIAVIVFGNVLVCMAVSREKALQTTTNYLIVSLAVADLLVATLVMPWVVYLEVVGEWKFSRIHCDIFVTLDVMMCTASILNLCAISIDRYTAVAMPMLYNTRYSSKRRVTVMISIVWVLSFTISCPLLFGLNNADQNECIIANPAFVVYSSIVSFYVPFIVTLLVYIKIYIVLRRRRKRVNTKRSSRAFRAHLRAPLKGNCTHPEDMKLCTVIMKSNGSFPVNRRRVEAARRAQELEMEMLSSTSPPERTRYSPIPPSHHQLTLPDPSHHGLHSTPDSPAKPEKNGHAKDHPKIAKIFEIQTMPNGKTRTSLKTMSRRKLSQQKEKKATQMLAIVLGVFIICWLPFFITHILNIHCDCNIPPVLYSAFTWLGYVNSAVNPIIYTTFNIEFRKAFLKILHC

How the values were obtained:
Rattus norvegicus = organism: Rattus norvegicus; experiment: Selectivity ratio of Ki for rat cloned dopamine D2L receptor to Ki for rat cloned dopamine D3 receptor
D(2) dopamine receptor = D(2) dopamine receptor (Homo sapiens, UniProt P14416); experiment: Agonist activity at human dopamine D2L receptor expressed in CHO cells assessed as stimulation of [35S]GTPgammaS binding after 60 mins by scintillation counting analysis; type: functional, cell-based

Compound	Ratio Ki (Rattus norvegicus)	EC50 (D(2) dopamine receptor)
CCCN(CCN1CCN(c2ccccc2)CC1)[C@@H]1CCc2ccc(NS(=O)(=O)c3ccc(OC)cc3)cc2C1	43.5	
CCCN(CCN1CCN(c2ccccc2)CC1)[C@@H]1CCc2ccc(N)cc2C1	29.8	
CCCN(CCN1CCN(c2ccccc2)CC1)[C@H]1CCc2c(cccc2OS(=O)(=O)c2ccc(OC)cc2)C1	28.2	
CCCN(CCN1CCN(C(=O)c2cc3ccccc3[nH]2)CC1)C1CCc2nc(N)sc2C1 (stereo unspecified)		114 nM
CCCN(CCN1CCN(c2ccccc2)CC1)[C@H]1CCc2ccc(N)cc2C1	59.6	
CCCN(CCN1CCN(c2ccccc2)CC1)C1CCc2ccc(NS(=O)(=O)c3ccc(OC)cc3)cc2C1 (racemic)	29.2	
